The assay has as its system Cells containing hepatitis C virus (HCV) replicon. Kind of assay: HCV replicon cell assay (Taqman real-time RT-PCR of HCV RNA level). It counts as cell-based. Particulars: 50% inhibition of HCV RNA level, 48-hour incubation. (A replicon is a self-replicating genome or part of one, used to study replication in cells.)

Among the data in patent publication US8486989B2, “Inhibitors of serine proteases, particularly HCV NS3-NS4A protease” (Vertex Pharmaceuticals Incorporated, priority 2001, dated 2013) are IC50 values, retold here.

As a reminder, the IC50 is the concentration at which inhibition is half-maximal. A high value points to weaker potency. The molecule `CCC[C@H](NC(=O)[C@@H]1[C@@H]2[C@H](CN1C(=O)[C@@H](NC(=O)[C@@H](NC(=O)c1cnccn1)C1CCCCC1)C(C)(C)C)[C@@H]1C=C[C@H]2C1)C(=O)C(=O)NC1CC1` [IA, 4-(2-{2-Cyclohexyl-2-[(pyrazine-2-carbonyl)-amino]-acetylamino}-3,3-dimethyl-butyryl)-4-aza-tricyclo[5.2.1.0^2,6]dec-8-ene-3-carboxylic acid (1-cycloproylaminooxalyl-butyl)-amide] yielded a half-maximal inhibitory concentration (IC50) of 0.202 µM.
